# Reference: paper doi:10.1101/2020.10.23.350348
# The chains behind the UniProt entries cited, without tags or fusion partners.
# UniProt P02786, whole entry: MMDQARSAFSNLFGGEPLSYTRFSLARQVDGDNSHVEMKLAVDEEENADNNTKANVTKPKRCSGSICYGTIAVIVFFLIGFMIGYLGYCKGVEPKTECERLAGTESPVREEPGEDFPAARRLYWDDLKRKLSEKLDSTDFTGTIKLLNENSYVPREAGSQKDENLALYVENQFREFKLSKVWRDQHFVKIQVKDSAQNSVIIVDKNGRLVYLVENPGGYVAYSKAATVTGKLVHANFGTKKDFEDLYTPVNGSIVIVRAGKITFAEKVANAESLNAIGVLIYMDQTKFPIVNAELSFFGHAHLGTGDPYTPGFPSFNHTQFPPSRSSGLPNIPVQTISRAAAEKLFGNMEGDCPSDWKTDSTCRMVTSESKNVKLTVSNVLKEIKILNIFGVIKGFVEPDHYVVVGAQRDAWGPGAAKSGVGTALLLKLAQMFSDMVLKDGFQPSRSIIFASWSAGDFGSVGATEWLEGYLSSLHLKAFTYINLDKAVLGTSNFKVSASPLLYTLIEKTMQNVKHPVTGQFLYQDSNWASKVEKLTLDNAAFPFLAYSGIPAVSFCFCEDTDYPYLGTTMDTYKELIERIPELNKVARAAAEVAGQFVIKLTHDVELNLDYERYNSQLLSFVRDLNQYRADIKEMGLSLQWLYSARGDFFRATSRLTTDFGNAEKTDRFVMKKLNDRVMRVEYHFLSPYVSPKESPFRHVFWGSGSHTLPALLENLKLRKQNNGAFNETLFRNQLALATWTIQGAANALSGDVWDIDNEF
# Biological target: transferrin receptor (UniProt P02786)
# Experiment: SPR
substance,measurement,value
angiotensin-converting enzyme 2 (from UniProt Q9BYF1 18-805) (receptor),Kd,200 nM
same,koff,0.0125 s⁻¹
same,kon,63300 M⁻¹ s⁻¹
